# The list is not random: actives were taken first. Their share in the collection is about 2.1%.
# SMARCA2 activ: SMARCA2 (BRM) function activators, primary screen, cell-based, luminescence, high throughput. MG213 cells, MMTV-luciferase reporter, dexamethasone, overnight. activation, % at 9.1 µM. actives 1% (n = 370,000). AID 652017, 2013; in the data active means activation above about 7.8%;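 further: 0% = vehicle wells and 100% = reference activator wells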
# ERp5 inh: inhibitors of ERp5-driven insulin aggregation, primary screen, biochemical, turbidity, absorbance 650 nm, single point; 90 min; inhibition, % at 9.99 µM; actives 0.05% (n = 350,000); AID 651711, 2012;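 active means mean replicate inhibition above about 25%, with every replicate also reaching it, limit read from the data, passing the limit was not always enough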
# NR1D1 modulator: modulators of Rev-erb alpha DNA binding, primary screen, biochemical, FITC-DNA, fluorescence polarization, uHTS; Rev-erbα–FITC-DNA binding, 90 min; activity, % at 10 µM; actives 0.79% (n = 370,000);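 active means activity above about 14%, limit read from the data; passing the limit was not always enough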;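 further: 0% = DMSO wells with 35 nM protein and 100% = DMSO wells with 750 nM protein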
# UUG fidelity: alters start codon recognition fidelity in yeast. 350,000 tested, 0.13% active. activity score, % at 18.7 µM. S. cerevisiae UUG-firefly luciferase reporter, luminescence/redox ratio;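 active = replicate mean at a twofold rise or more, about +100% in these data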;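 also: firefly luciferase made from a UUG start codon reports start codon fidelity; reporter light over untreated wells divided by growth signal over untreated wells; some hits fall short of that in this replicate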
# PDI inh: inhibitors of human PDI, primary screen, biochemical, turbidity, single point, plate reader; Protein disulfide-isomerase (Homo sapiens), P07237; PDI insulin aggregation turbidity, A650, 90 min; inhibition, % at 10 µM; actives 0.052% (n = 350,000);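 active means mean inhibition across replicates of 30% or more, whatever share of single replicates reach that level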
# GSIS activator: GLuc luminescence reporter in INS-1E cells, primary screen for activators of glucose-dependent secretion of insulin | INS-1E GLuc reporter insulin secretion, 2-3 h | activation, % at 16.6 µM | actives 0.61% (n = 370,000);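 active means lowest replicate activation of at least 40%, so every replicate reaches that level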;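 further: 0% = median of neutral control wells and 100% = median of IBMX positive control wells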
# SMARCA2 conf: SMARCA2 (BRM) function activators, confirmation, cell-based, luminescence, triplicate; activation, % at 9.1 µM; shares compounds with SMARCA2 activ; MG213 cells, MMTV-luciferase with dexamethasone, overnight; MG213 cells expressing E1A, Rb sequestered; DMSO wells 0%, reference activator 100%; actives 30% (n = 3,500);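 active means activation above its plate's cutoff, the mean activation of tested wells plus 3 SD, cut at about 7.9% in these data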
# VP16 Luc act: GAL4-VP16 luciferase reporter activation, counter-screen for SMARCA2 (BRM) activator project, cell-based, pG5luc, luminescence, high throughput; shares compounds with SMARCA2 activ; HEK293 GAL4-VP16 pG5luc reporter; scaled: DMSO wells 0%, SAHA wells 100%; activation, % at 9.1 µM; actives 41% (n = 3,500); AID 686939, 2013;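 active means activation above the solvent-only control well mean plus 3 SD, averaged across control plates, cut at about 5.2% in these data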
# Active calls of the source: *; x = no result; ! = repeats disagree.
# Key to letters: A = SMARCA2 activ; B = ERp5 inh; C = NR1D1 modulator; D = UUG fidelity; E = PDI inh; F = GSIS activator; G = SMARCA2 conf; H = VP16 Luc act
1: Cc1cc(CN2CCCC(C(=O)Nc3ccc(-c4nc5ccccc5[nH]4)cc3)C2)n[nH]1 (stereo not drawn)
  A = 10.0*; B = -1; C = -1; D = -18; E = -12; F = -2; G = 2; H = 5.5*
2: CCCNC(=O)[C@H]1[C@H](CO)[C@H]2Cn3c(ccc(-c4ccncc4)c3=O)[C@@H]1N2C(=O)CC1CC1
  A = x; B = -10; C = x; D = x; E = x; F = 10; G = x; H = x
3: O=c1c2cc(F)ccc2sn1-c1ccccc1Cl
  A = 9.0*; B = 4; C = 2; D = -23; E = -2; F = 202*; G = -2; H = 0
4: N=C1SCC(=O)N1c1ccccc1Cl
  A = -3; B = 1; C = 2; D = -23; E = 8; F = -1; G = x; H = x
5: O=C(C[C@H]1C=C[C@H](NC(=O)Nc2ccc(F)cc2)[C@@H](CO)O1)NCc1ccccn1
  A = x; B = 8; C = x; D = -15; E = x; F = -6; G = x; H = x
6: O=C(CCn1c(=O)sc2ccccc21)Nc1nccs1
  A = 8.3*; B = x; C = -4; D = -23; E = -4; F = 2; G = 4; H = 7.7*
7: COC(=O)C[C@H]1CC[C@@H](N)[C@H](CO)O1
  A = x; B = 2; C = x; D = x; E = x; F = x; G = x; H = x
8: CCCOc1ccc(N2C(=O)CC(SCCN)C2=O)cc1 (stereo not drawn)
  A = 10*; B = x; C = -1; D = -50; E = 1; F = x; G = 7.9*; H = 6.6*
9: COc1cccc(S(=O)(=O)N(C)C[C@@H]2Oc3ncc(C#CC(C)C)cc3C(=O)N([C@H](C)CO)C[C@@H]2C)c1
  A = x; B = 2; C = x; D = 1; E = x; F = 6; G = x; H = x
10: Cc1ccc(S(=O)(=O)Nc2ccc3c(c2)C(=O)N([C@@H](C)CO)C[C@H](C)[C@H](CN(C)S(=O)(=O)c2cn(C)cn2)OCCCC[C@@H](C)O3)cc1
  A = x; B = 3; C = x; D = 12; E = x; F = 4; G = x; H = x
11: CNc1ccc(C=C2C=Cc3ccccc32)cc1
  A = 1; B = 3; C = -5; D = x; E = -1; F = -3; G = x; H = x
12: CN(C)c1ccc(C=C2C=Cc3ccccc32)cc1
  A = 9.3*; B = 0; C = 2; D = -14; E = -3; F = x; G = 3; H = 11*
13: COc1ccccc1-c1cn(CC[C@@H]2CC[C@@H](NC(=O)C3CCC3)[C@H](CO)O2)nn1
  A = x; B = -4; C = x; D = 0; E = x; F = 40; G = x; H = x
14: C[C@@H](NC(=O)/C(C#N)=C/c1ccc(O)c(O)c1)c1ccccc1
  A = -5; B = -3; C = 4; D = -16; E = -6; F = x; G = x; H = x
15: Cc1cccc(NC(=O)/C(C#N)=C/c2ccccc2O)n1
  A = 12*; B = 6; C = 5; D = 5; E = -4; F = 3; G = 5; H = 6.7*

# Next records.
# Key to letters: A = SMARCA2 activ; B = ERp5 inh; C = NR1D1 modulator; D = UUG fidelity; E = PDI inh; F = GSIS activator; G = SMARCA2 conf; H = VP16 Luc act
16: N#C/C(=C\c1ccc(O)c(O)c1)C(=O)Nc1ccccc1
  A = 9.8*; B = -8; C = 0; D = -21; E = -2; F = x; G = 0; H = 4
17: Cc1cc(C(=O)Nc2cccc3c2O[C@@H](CN(C)S(C)(=O)=O)[C@H](C)CN([C@H](C)CO)C3=O)n(C)n1
  A = x; B = -1; C = x; D = -9; E = x; F = 6; G = x; H = x
18: O=C(NCC[C@@H]1CC[C@H](NC(=O)C2CCCC2)[C@@H](CO)O1)c1cnccn1
  A = x; B = 5; C = x; D = 6; E = x; F = -8; G = x; H = x
19: C[C@@H]1CN([C@@H](C)CO)C(=O)Cc2cc(NC(=O)c3ccncc3)ccc2O[C@@H]1CN(C)CC1CC1
  A = x; B = 4; C = x; D = -5; E = x; F = 4; G = x; H = x
20: NC(=S)N/N=C/c1coc2cc(Br)ccc2c1=O
  A = -5; B = 2; C = -4; D = x; E = 4; F = x; G = x; H = x
21: NC(=S)N/N=C/c1coc2c(ccc3ccccc32)c1=O
  A = 13*; B = x; C = -25; D = -13; E = -11; F = 7; G = 2; H = 3
22: COc1cccc(C#Cc2cnc3c(c2)C(=O)N([C@@H](C)CO)C[C@@H](C)[C@@H](CN(C)C(C)=O)O3)c1
  A = x; B = 0; C = x; D = 14; E = x; F = 56; G = x; H = x
23: Cc1ccc(C(C#N)=Cc2ccc3c(c2)OCO3)cc1
  A = 14*; B = -1; C = -3; D = -18; E = 4; F = 17; G = 2; H = 11*
24: CCCC(CCC)C(=O)O
  A = 8.1*!; B = -2; C = 1; D = -6; E = 12; F = 9; G = -1; H = 0
25: O=C(/C=C/Sc1ccccc1)c1ccc(Cl)cc1
  A = 8.1*; B = x; C = -1; D = x; E = -1; F = x; G = 5; H = 6.4*
26: CCCCOc1ccc(C(=O)NCCc2ccccc2)cc1
  A = 8.4*; B = -3; C = 0; D = -6; E = 2; F = -5; G = 8; H = 13*
27: O=C(NCCc1ccccc1)c1ccc(Cl)c([N+](=O)[O-])c1
  A = 9.9*; B = x; C = 2; D = 25; E = -3; F = -12; G = 1; H = 8.6*
28: Cc1cccc(C(=O)NCCc2ccccc2)c1
  A = 11*; B = 4; C = -1; D = -18; E = 2; F = 11; G = 8; H = 14*
29: O=C(NN1CCOCC1)c1ccc(Cl)c([N+](=O)[O-])c1
  A = 10*; B = 9; C = 3; D = -2; E = -3; F = 6; G = 0; H = 1
30: Cc1cc(C(=O)NCCc2ccccc2)ccc1[N+](=O)[O-]
  A = 6; B = 5; C = 1; D = -22; E = -2; F = -6; G = x; H = x

# Record cards, as listed above. Order of values: SMARCA2 activ, ERp5 inh, NR1D1 modulator, UUG fidelity, PDI inh, GSIS activator, SMARCA2 conf, VP16 Luc act
# `Cc1cc(C(=O)NCCc2ccccc2)ccc1[N+](=O)[O-]` is entered as 6, 5, 1, -22, -2, -6, x, x
# `O=C(NCCc1ccccc1)c1ccc(Cl)c([N+](=O)[O-])c1` is entered as 9.9*, x, 2, 25, -3, -12, 1, 8.6*
# `COc1cccc(C#Cc2cnc3c(c2)C(=O)N([C@@H](C)CO)C[C@@H](C)[C@@H](CN(C)C(C)=O)O3)c1` is entered as x, 0, x, 14, x, 56, x, x

# Further records follow:
# Key to letters: A = SMARCA2 activ; B = ERp5 inh; C = NR1D1 modulator; D = UUG fidelity; E = PDI inh; F = GSIS activator; G = SMARCA2 conf; H = VP16 Luc act
31: CC(Oc1ccc(C(=O)NCCc2ccccc2)cc1)C(=O)O (stereo not drawn)
  A = -2; B = x; C = 1; D = -12; E = 3; F = x; G = x; H = x
32: COCC(=O)Nc1ccc2c(c1)[C@H]1C[C@H](CC(=O)NCc3ccc(-c4ccccc4)cc3)O[C@H](CO)[C@H]1O2
  A = x; B = -2; C = x; D = 5; E = x; F = -19; G = x; H = x
33: Cc1ccc(C)c(C(=O)COC(=O)c2cccc(N3C(=O)c4c(C)nc5ccccc5c4C3=O)c2)c1
  A = 14*; B = x; C = 4; D = x; E = -10; F = -7; G = 1; H = 3
34: Cc1nc2ccccc2c2c1C(=O)N(c1cccc(C(=O)O)c1)C2=O
  A = 3; B = -3; C = 2; D = x; E = 6; F = 3; G = x; H = x
35: Nc1ccc(S(=O)(=O)NC2(C(F)(F)F)NC(=O)N(Cc3ccccc3)C2=O)cc1 (stereo not drawn)
  A = 8.0*; B = 1; C = 0; D = 0; E = -1; F = 11; G = -5; H = 0
36: CCN1CCN(c2cc(C)c3cc(NC(=S)N4CCN(c5ccccc5)CC4)ccc3n2)CC1
  A = 9.1*; B = 4; C = -2; D = -30; E = 2; F = 5; G = 26*; H = 1
37: CCOc1ccc(C(=O)Nc2ccc3nc(N4CCN(CC)CC4)cc(C)c3c2)cc1
  A = -2; B = 2; C = 5; D = -3; E = -7; F = 13; G = x; H = x
38: CCN1CCN(c2cc(C)c3cc(NC(=S)N4CCOCC4)ccc3n2)CC1
  A = 3; B = 6; C = -18; D = x; E = 1; F = 29; G = x; H = x
39: CCN1CCN(c2cc(C)c3cc(NC(=O)c4cc(OC)cc(OC)c4)ccc3n2)CC1
  A = 9.9*; B = -4; C = 9; D = -18; E = -4; F = 16; G = 14*; H = 5.5*
40: COc1ccc(OC)c(S(=O)(=O)Nc2c(F)cccc2F)c1
  A = 10.0*; B = x; C = -1; D = -13; E = -10; F = x; G = -4; H = -1

# Assay outcomes deposited in PubChem by several laboratories.
